Earlier results in patent publication US4847295A, “Cycloalkyl-substituted 4-aminophenyl halo derivatives and process for their preparation” (Farmitalia Carlo Erba S.r.l., priority 1987, dated 1989).

System: aromatase
Conditions: reported in literature; cited from earlier work

CCC1(c2ccc(N)cc2)CCC(=O)NC1=O (stereo not shown) [Aminoglutethimide, aminoglutethimide]
aromatase-inhibiting action (in words): more or less selective aromatase-inhibiting action
